SMILES strings stand for the structures.

The chains behind the UniProt entries cited, without tags or fusion partners. Residues count along the entry.
UniProt A0A0H3KN52, 45-302: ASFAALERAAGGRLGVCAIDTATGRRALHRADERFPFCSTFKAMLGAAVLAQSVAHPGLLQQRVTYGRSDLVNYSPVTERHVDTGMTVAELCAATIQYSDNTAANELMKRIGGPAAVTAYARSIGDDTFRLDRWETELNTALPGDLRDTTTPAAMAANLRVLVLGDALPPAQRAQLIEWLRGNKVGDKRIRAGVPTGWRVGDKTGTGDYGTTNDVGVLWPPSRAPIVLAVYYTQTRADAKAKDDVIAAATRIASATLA

The assay addresses PenA β-lactamase (Burkholderia multivorans, UniProt A0A0H3KN52). Briefly: biochemical.

The term Ki denotes a measure of affinity in units of concentration, obtained from inhibition or displacement. Low values mean tighter binding, high ones weaker binding. Take `NC(=O)[C@@H]1CC[C@@H]2CN1C(=O)N2OS(=O)(=O)O` [avibactam]: affinity was put at a Ki of 500 ± 100 nM.

For the origin of these results see PMC5560099 (ACS infectious diseases, 2017).
